# Target: Tyrosine-protein kinase JAK2 (Homo sapiens, UniProt O60674)
# Chains of the proteins cited; added tags and fusions are not shown. Lines headed by an entry give the natural chain unless they say otherwise; changes in a name come on top.
# UniProt O60674: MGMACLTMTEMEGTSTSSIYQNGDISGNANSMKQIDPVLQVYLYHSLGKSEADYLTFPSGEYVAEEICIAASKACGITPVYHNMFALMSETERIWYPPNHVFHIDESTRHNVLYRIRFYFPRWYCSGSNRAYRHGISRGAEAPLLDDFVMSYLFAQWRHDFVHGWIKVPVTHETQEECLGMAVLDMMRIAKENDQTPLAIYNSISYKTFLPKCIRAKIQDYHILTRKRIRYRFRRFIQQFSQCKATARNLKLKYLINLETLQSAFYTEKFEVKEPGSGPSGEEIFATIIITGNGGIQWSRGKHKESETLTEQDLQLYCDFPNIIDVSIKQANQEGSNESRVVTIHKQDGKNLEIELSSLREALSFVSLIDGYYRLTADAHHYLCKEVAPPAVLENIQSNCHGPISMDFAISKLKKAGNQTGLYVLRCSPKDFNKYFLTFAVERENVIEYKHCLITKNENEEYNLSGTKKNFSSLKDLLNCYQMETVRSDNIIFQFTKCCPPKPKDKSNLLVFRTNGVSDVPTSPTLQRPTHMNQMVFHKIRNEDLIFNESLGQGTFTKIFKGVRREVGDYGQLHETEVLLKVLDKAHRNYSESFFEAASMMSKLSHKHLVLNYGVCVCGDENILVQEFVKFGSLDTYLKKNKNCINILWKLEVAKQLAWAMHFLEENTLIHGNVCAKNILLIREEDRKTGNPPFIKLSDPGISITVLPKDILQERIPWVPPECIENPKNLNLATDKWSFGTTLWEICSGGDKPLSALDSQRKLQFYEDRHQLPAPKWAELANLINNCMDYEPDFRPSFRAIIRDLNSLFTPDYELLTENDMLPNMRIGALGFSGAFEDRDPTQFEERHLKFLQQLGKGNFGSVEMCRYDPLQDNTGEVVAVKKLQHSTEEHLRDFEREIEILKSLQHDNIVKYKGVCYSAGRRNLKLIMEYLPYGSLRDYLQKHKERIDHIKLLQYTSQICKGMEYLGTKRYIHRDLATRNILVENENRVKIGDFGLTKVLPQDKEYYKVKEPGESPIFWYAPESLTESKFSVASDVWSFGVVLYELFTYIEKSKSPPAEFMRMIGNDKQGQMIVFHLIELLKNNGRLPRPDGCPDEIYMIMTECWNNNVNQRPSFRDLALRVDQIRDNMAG
# Test: Biochemical HTRF Enzyme Assay Protocol: The basic assay protocol is as follows: First, 250 nL of diluted compounds in DMSO were dispensed into the wells of a dry 384-well Black plate (GreinerFluotrac™ catalog number: 781076; Greiner Bio-One GmbH, Frickenhausen, Germany) using a Labcyte Echo® 555 acoustic dispenser ([…], Sunnyvale, Calif., USA). Subsequent reagent additions employed an Agilent™ Bravo™ liquid handling system (Aligent Technologies, Santa Clara, Calif., USA). […] After equilibration, 2 μL of 10×ATP in 1× assay buffer was added to initiate the kinase reaction and the plates were shaken and then incubated at ambient temperature for 120 minutes. At the end of the incubation, 20 μL of 2× stop buffer (Streptavidin-Dylight 650/100 mL catalogue number: 8454B (Invitrogen™/Life Technologies/ThermoFisher Scientific Inc., Waltham, Mass., USA); Europium-tagged pY20 antibody (PerkinElmer™ catalogue number: AD0067 (PerkinElmer™, Waltham, Mass., USA)); EDTA; HEPES; and Triton™ X-100 (Sigma-Aldrich, St. Louis, Mo., USA) was added to quench the reaction.
row,IC50 [nM],Structure (SMILES)
1,1.92,N#C[C@H]1CCOC[C@@H]1n1cc(C(N)=O)c(Nc2ccc(Cl)cc2)n1
2,23.4,N#C[C@H]1CCOC[C@@H]1n1cc(C(N)=O)c(Nc2ccc(Cl)c(Cl)c2)n1

# From ChEMBL document CHEMBL5727955, “Aminopyrazoles as janus kinase inhibitors” (2020)
